The structures appear in SMILES notation.

For assay [1], the species on record is Homo sapiens. As to the kind of experiment: Selectivity ratio of IC50 for inhibition of mTOR in human LoVo cells using pP70S6K (Thr389) as substrate to IC50 for inhibition of ATR in gemcitabine-stimulated human LoVo cells using CHK1 (Ser345) as substrate. The format is cell-based.
The species named for assay [2] is Homo sapiens. As to the kind of experiment: Selectivity ratio of IC50 for inhibition of mTOR in human HeLa S3 cells to IC50 for inhibition of ATR in human HeLa S3 cells. The format is cell-based. The following applies: time 1.0 hrs.

Consider `C[C@@H]1COCCN1c1cc([C@]2(O)C[C@H]3CC[C@@H](C2)O3)c2cnn(-c3cc[nH]n3)c2n1` [CAMONSERTIB], for which the Ratio IC50 in the assay listed under Homo sapiens [1] was found to be 30; in the assay filed under Homo sapiens [2] it was 28.

The record behind these values is ChEMBL document CHEMBL5505970 (J Med Chem, 2024).
